# Source: PubChem BioAssay AID651953 (The Scripps Research Institute Molecular Screening Center, 2012)
# This is a selection; strong and weak results do not stand in their true shares. The source made the active and inactive calls. Rule as the data show it: active = activation above about 12%; inactive = the rest.
# Test: calcium activation in Ga16-expressing cells, counter-screen for TAAR1 antagonist project, cell-based, fluorescence (AID 651953);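 also: 0% = vehicle wells and 100% = saturating stimulus response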
# Conditions: agonist counterscreen, at 3 µM, stronger effect = higher value
row,Structure (SMILES),activation
1,O=c1[nH]c2ccccc2n1C1CCN(C(c2ccnc3ccccc23)c2nnnn2C2CCCCC2)CC1 (stereo not drawn),inactive: 10.6%
2,COc1cccc(C(c2nnnn2C2CCCC2)N2CCC(n3c(=O)[nH]c4ccccc43)CC2)c1OC (stereo not drawn),inactive: 9.74%
3,O=c1[nH]c2ccccc2n1C1CCN(C(c2cccs2)c2nnnn2C2CCCCC2)CC1 (stereo not drawn),active: 12.4%
4,CCCCn1nnnc1C(c1ccccc1)N1CCC(n2c(=O)[nH]c3ccccc32)CC1 (stereo not drawn),inactive: 6.61%
5,O=c1[nH]c2ccccc2n1C1CCN(C(c2cccs2)c2nnnn2C2CCCC2)CC1 (stereo not drawn),inactive: 11.3%
6,O=c1[nH]c2ccccc2n1C1CCN(C(c2ccccc2)c2nnnn2C2CCCC2)CC1 (stereo not drawn),inactive: 5.67%
7,CCCCn1nnnc1C(c1cc2ccccc2o1)N1CCC(n2c(=O)[nH]c3ccccc32)CC1 (stereo not drawn),inactive: 7.07%
8,O=c1[nH]c2ccccc2n1C1CCN(C(c2ccccc2)c2nnnn2C2CCCCC2)CC1 (stereo not drawn),inactive: 9.93%
